Measurements: paper doi:10.1101/2023.11.09.566408v1 (bioRxiv, 2023)
Where two headings read alike, the source gives them in different places.

Assay type: in vivo, mice
Conditions: male, Swiss, mouse, plasma

SMILES: CC[C@H](C)[C@H](NC(=O)[C@@H]1CCCN1C(=O)CNC(=O)[C@H](Cc1ccccc1)NC(=O)[C@H](CC(N)=O)NC(=O)[C@H](CC(N)=O)NC(=O)[C@H](CO)NC(=O)[C@H](CO)NC(=O)[C@H](Cc1c[nH]cn1)NC(=O)[C@@H](NC(=O)[C@H](CC(C)C)NC(=O)[C@H](Cc1ccccc1)NC(=O)[C@H](CC(N)=O)NC(=O)[C@H](C)NC(=O)[C@H](CC(C)C)NC(=O)[C@H](CCCNC(=N)N)NC(=O)[C@H](CCC(N)=O)NC(=O)[C@@H](NC(=O)[C@H](C)NC(=O)[C@@H]1CSSC[C@H](NC(=O)[C@@H](N)CCCCN)C(=O)N[C@@H](CC(N)=O)C(=O)N[C@@H]([C@@H](C)O)C(=O)N[C@@H](C)C(=O)N[C@@H]([C@@H](C)O)C(=O)N1)[C@@H](C)O)C(C)C)C(=O)N[C@@H](CC(C)C)C(=O)N1CCC[C@H]1C(=O)N1CCC[C@H]1C(=O)N[C@H](C(=O)N[C@@H](CC(N)=O)C(=O)N[C@H](C(=O)NCC(=O)N[C@@H](CO)C(=O)N[C@@H](CC(N)=O)C(=O)N[C@H](C(=O)N[C@@H](Cc1ccc(O)cc1)C(N)=O)[C@@H](C)O)C(C)C)[C@@H](C)O [pramlintide]
- Cmax (iv, 5 μg/animal): ~3.7 nM
- half-life (iv, 5 μg/animal): 6.8 min
- Cmax (po, 100 ug): 0.13 nM
